Reference: ChEMBL document CHEMBL1128249, “2,4-Diamino-5-substituted-quinazolines as inhibitors of a human dihydrofolate reductase with a site-directed mutation at position 22 and of the dihydrofolate reductases from Pneumocystis carinii and Toxoplasma gondii” (J Med Chem, 1995)

Target: T1, Dihydrofolate reductase (Homo sapiens, UniProt P00374)
T1 sequence (P00374 whole entry): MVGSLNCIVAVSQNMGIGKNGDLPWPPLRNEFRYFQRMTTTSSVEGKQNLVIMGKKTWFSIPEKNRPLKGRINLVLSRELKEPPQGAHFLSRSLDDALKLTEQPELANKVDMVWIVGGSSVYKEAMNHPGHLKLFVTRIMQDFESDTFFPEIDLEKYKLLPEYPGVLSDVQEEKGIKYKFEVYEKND
Assay: Inhibitory compound against Wild-type human DHFR.

Nc1nc(N)c2c(/C=C/c3ccccc3)cccc2n1
Ki: 5.4 nM
